## Ab-14 light chain CDR variants: yeast mating affinities

Values reported by Engelhart et al. 2022, doi:10.1038/s41597-022-01779-4 (FLAb copy).

Antigen: PDVDLGDISGINAS, a 14-residue peptide of the SARS-CoV-2 spike HR2 region.

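The starting antibody came from a phage panning campaign against this peptide. Library AAYL50 holds single substitutions and randomly drawn double and triple substitutions in the CDRs. In AlphaSeq, yeast of one mating type display the scFv and yeast of the other type display the target. Mating (16 h, 30 °C) was followed by selection of diploids and sequencing of their barcodes. A regression on co-assayed BCL2-family reference pairs converts the normalised counts of each replicate to an apparent Kd. Each pool was mated in three replicate cultures.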

Parent: Ab-14, a human scFv built as VH, the linker GGGGSGGGGSGGGGS, VL. Only the CDRs of the light chain vary.
VH: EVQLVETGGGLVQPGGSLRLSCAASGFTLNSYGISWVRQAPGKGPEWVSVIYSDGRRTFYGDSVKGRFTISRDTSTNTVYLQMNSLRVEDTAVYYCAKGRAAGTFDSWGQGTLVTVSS
VL: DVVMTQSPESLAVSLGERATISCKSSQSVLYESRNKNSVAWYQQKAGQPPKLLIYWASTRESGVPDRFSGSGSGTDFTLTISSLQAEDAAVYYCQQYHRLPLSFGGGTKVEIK

Each variant is given by its three light chain CDRs, as the data file delimits them; those of the parent are KSSQSVLYESRNKNSVA, WASTRES, QQYHRLPLS. Values are log10 of the apparent Kd in nM; lower means stronger binding. Where no diploid with the target was found in that replicate, the entry reads "nd": below detection, most likely a poor binder, though not proof of it. In this assay the parent's reference entry averaged 0.65; its copy inside this library read 1.68. Nonspecific signal, from three strains lacking the peptide, appeared in 18% of pairings of library AAYL50, centred on 4.19 (5% of these signals below 2.99); values are not corrected for it. Also given: how often the same scFv was detected with the empty control strains.

For KSSQSVLYESRNKNSDA, WASTRKS, QQYHRLPLS, the assay gave 4.44, 3.24, nd (controls 0 of 9).
For VSSQDVLYESRNKNSVA, WASTRES, QQSHRLPLS, the assay gave 3.90, 2.77, 4.19 (controls 0 of 9).
For KSSQDVLYESRNENSVA, WASTVES, QQYHRLPLS, the assay gave 1.37, 1.25, 1.23 (controls 2 of 9).
For KSSQSVLYESRNKNSRA, WASTRES, FQYHRLPLS, the assay gave nd, nd, nd (controls 2 of 9).
For KVSQSYLYEVRNKNSVA, WASTRES, QQYHRLPLS, the assay gave 1.37, 1.24, 1.77 (controls 2 of 9).
For KSSQSVIYESRNKNSVA, WASTYES, QQYHRIPLS, the assay gave 4.52, 4.72, nd (controls 4 of 9).
For KSSQSDLYESRNKNSGC, WASTRES, QQYHRLPLS, the assay gave nd, nd, nd (controls 0 of 9).
For KSSESVLYESCNKNSVA, WASTRES, QQYERLPLS, the assay gave 1.26, 1.35, 1.16 (controls 1 of 9).
For ASSQSVLYESMNKFSVA, WASTRES, QQYHRLPLS, the assay gave 1.73, 2.19, 1.82 (controls 0 of 9).
For KSSQSHLYESRNKKSVA, WASARES, QQYHRLPLS, the assay gave 2.89, 2.59, 2.86 (controls 2 of 9).
For KSSYSVLYESRNKNFVA, WASTRES, QQYHRLPLS, the assay gave 3.45, nd, 3.96 (controls 2 of 9).
For KSSQSVLYESQNKNSRA, WASTRES, QFYHRLPLS, the assay gave 4.54, 4.83, nd (controls 3 of 9).
For KSSQSVLYESRNKYSVA, WNSTFES, QQYHRLPLS, the assay gave nd, nd, nd (controls 1 of 9).
For KSSQSVLYESRNKNEVA, SASTREP, QQYHRLPLS, the assay gave 3.90, 3.25, nd (controls 3 of 9).
For KSSQSVLYESRNKNSVA, RASTREW, QQYHTLPLS, the assay gave 1.39, 1.25, 1.53 (controls 0 of 9).
For KSSQSVLYESRNKNSVA, WASTRNS, PQYHDLPLS, the assay gave nd, nd, nd (controls 2 of 9).
For KSSQSVLYESMNKNSVA, WACTRES, QQYHRLPYS, the assay gave nd, nd, 4.24 (controls 2 of 9).
For KSQQSVLYESRNKNSVA, IASTRES, QQYGRLPLS, the assay gave nd, nd, nd (controls 0 of 9).
For KHSQSVLYESRNKNSVA, WASTRES, QQYHGLGLS, the assay gave 1.90, 2.86, 2.17 (controls 1 of 9).
For KSSQSVLYESRNKNSPA, WSSTSES, QQYHRLPLS, the assay gave nd, nd, nd (controls 0 of 9).
For KSSQSVLYESRNKNSVA, WASTRWS, QQYFRLPLS, the assay gave 1.31, 1.44, 1.57 (controls 1 of 9).
For KSSQSVLYESTNKNSVA, WASTRES, QQYHRWHLS, the assay gave 0.41, 0.61, 0.48 (controls 2 of 9).
For KSSQSVLYESRNKNSVA, WAVTRES, QQYHRAPLS, the assay gave nd, nd, nd (controls 1 of 9).
For KSSQSVLYESRNKNMVA, WASCRES, QSYHRLPLS, the assay gave 2.84, nd, 4.10 (controls 0 of 9).
For KMSQSVAYESRNKNSVA, WASERES, QQYHRLPLS, the assay gave nd, nd, 3.27 (controls 0 of 9).
For YSSQSVLYEHRNKNSYA, WASTRES, QQYHRLPLS, the assay gave nd, nd, 3.60 (controls 1 of 9).
For FSSQSVLYESANKNSHA, WASTRES, QQYHRLPLS, the assay gave nd, nd, 4.59 (controls 0 of 9).
For KSSQSVTYESRNKNTVA, WASTIES, QQYHRLPLS, the assay gave nd, nd, nd (controls 0 of 9).
For KSSQSVLYESRFKVSVA, WASTRSS, QQYHRLPLS, the assay gave nd, nd, nd (controls 0 of 9).
For KSEFSVLYESRNKNSVA, WASTRES, DQYHRLPLS, the assay gave 0.57, 0.96, 0.76 (controls 3 of 9).
For KSSQSVLYESRNKNIVA, WASVRES, WQYHRLPLS, the assay gave nd, nd, nd (controls 1 of 9).
For KPSQSVLYESRNKNSNA, WASTRES, QQYHRLPLS, the assay gave nd, 4.19, nd (controls 3 of 9).
For KSWQSVLYESRNKNSVA, WASTRES, QQYERLPLS, the assay gave 1.61, 2.16, 2.64 (controls 2 of 9).
For KSSQSVLFYRRNKNSVA, WASTRES, QQYHRLPLS, the assay gave nd, nd, nd (controls 3 of 9).
For KSSQSVLYESRNKNSGA, WASTRES, QQYHRSPPS, the assay gave nd, nd, nd (controls 0 of 9).
For KSSQSTLYESRNKNSVA, WASLRES, QQHHRLPLS, the assay gave 0.68, 0.83, 0.88 (controls 2 of 9).
For KSSQSVLYESRNKPSVA, WASTRES, QQQHRCPLS, the assay gave 4.08, 5.26, nd (controls 2 of 9).
For KSSQHVLYESRNDNSVA, WASTPES, QQYHRLPLS, the assay gave 3.82, 2.63, nd (controls 1 of 9).
For KSSQSVLYESRYKNSQA, WASTRES, QTYHRLPLS, the assay gave nd, nd, nd (controls 3 of 9).
For KSSQSVLYVSRNKNSVA, WASTRES, QQRHRLPLS, the assay gave nd, nd, nd (controls 0 of 9).
For KSSQSVLYESRNKNSVA, WASTNES, QQYERLPLS, the assay gave nd, nd, nd (controls 1 of 9).
For KSSQSYLYESRTKNSVA, WASHRES, QQYHRLPLS, the assay gave 1.49, 1.74, 2.00 (controls 0 of 9).
For KWSQSVLYESRNKNPVA, WAQTRES, QQYHRLPLS, the assay gave 2.68, 2.55, 3.14 (controls 5 of 9).
For KSSQSVLYESRNKESVA, MASTRES, QQYHRLPLA, the assay gave 0.90, 1.10, 1.13 (controls 4 of 9).
For KSSQSVLYESRGKNSVA, WASTREY, QQYHRLPLE, the assay gave 1.03, 1.28, 1.38 (controls 1 of 9).
For KSSQSVIWESRNKNSVA, WASTRHS, QQYHRLPLS, the assay gave nd, nd, nd (controls 1 of 9).
For KSSQSVLYESRNKHSVA, WASTRES, QQEHRLPLS, the assay gave 1.79, 1.47, 1.29 (controls 1 of 9).
For KSSQSVGYESRNKQSVA, WASTRES, QQYHRLPLI, the assay gave 1.27, 1.51, 1.77 (controls 2 of 9).
For KSSQSVLYWSRNKNSRA, WASTRES, QQYHRLPLE, the assay gave nd, nd, nd (controls 0 of 9).

Top 6 of the variants detected in all replicates, tightest first:

CDR-L1,CDR-L2,CDR-L3,"replicates, log10 nM",empty controls
KSSQSVLYESTNKNSVA,WASTRES,QQYHRWHLS,"0.41, 0.61, 0.48",2/9
KSEFSVLYESRNKNSVA,WASTRES,DQYHRLPLS,"0.57, 0.96, 0.76",3/9
KSSQSTLYESRNKNSVA,WASLRES,QQHHRLPLS,"0.68, 0.83, 0.88",2/9
KSSQSVLYESRNKESVA,MASTRES,QQYHRLPLA,"0.90, 1.10, 1.13",4/9
KSSQSVLYESRGKNSVA,WASTREY,QQYHRLPLE,"1.03, 1.28, 1.38",1/9
KSSESVLYESCNKNSVA,WASTRES,QQYERLPLS,"1.26, 1.35, 1.16",1/9